Results as given in US20260001849A1, “NOVEL B0AT1 INHIBITOR” (MITSUBISHI TANABE PHARMA CORPORATION, priority 2023, published 2026).
Like-named read-outs stand apart in the source and are kept apart here.

Protein sequences, listed by entry. Tags and fused reporters are not part of them.
UniProt Q695T7, whole entry: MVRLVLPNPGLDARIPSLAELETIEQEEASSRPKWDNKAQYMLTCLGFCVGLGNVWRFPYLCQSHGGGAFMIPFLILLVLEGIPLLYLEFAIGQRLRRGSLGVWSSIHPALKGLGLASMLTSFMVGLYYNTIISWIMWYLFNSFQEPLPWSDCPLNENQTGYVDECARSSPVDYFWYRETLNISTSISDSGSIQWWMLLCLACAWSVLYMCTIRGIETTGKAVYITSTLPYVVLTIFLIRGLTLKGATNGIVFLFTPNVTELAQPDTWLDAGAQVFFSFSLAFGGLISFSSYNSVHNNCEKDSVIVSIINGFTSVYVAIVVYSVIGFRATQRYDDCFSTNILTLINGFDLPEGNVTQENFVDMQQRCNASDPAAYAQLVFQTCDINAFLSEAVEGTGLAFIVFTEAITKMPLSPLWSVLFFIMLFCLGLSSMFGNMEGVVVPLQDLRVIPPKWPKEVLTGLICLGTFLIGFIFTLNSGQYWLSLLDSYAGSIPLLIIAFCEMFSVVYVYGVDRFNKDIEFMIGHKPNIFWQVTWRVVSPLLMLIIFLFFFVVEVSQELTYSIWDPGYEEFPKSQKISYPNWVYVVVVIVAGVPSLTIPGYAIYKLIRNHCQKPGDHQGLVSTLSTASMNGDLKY
UniProt Q12809, whole entry: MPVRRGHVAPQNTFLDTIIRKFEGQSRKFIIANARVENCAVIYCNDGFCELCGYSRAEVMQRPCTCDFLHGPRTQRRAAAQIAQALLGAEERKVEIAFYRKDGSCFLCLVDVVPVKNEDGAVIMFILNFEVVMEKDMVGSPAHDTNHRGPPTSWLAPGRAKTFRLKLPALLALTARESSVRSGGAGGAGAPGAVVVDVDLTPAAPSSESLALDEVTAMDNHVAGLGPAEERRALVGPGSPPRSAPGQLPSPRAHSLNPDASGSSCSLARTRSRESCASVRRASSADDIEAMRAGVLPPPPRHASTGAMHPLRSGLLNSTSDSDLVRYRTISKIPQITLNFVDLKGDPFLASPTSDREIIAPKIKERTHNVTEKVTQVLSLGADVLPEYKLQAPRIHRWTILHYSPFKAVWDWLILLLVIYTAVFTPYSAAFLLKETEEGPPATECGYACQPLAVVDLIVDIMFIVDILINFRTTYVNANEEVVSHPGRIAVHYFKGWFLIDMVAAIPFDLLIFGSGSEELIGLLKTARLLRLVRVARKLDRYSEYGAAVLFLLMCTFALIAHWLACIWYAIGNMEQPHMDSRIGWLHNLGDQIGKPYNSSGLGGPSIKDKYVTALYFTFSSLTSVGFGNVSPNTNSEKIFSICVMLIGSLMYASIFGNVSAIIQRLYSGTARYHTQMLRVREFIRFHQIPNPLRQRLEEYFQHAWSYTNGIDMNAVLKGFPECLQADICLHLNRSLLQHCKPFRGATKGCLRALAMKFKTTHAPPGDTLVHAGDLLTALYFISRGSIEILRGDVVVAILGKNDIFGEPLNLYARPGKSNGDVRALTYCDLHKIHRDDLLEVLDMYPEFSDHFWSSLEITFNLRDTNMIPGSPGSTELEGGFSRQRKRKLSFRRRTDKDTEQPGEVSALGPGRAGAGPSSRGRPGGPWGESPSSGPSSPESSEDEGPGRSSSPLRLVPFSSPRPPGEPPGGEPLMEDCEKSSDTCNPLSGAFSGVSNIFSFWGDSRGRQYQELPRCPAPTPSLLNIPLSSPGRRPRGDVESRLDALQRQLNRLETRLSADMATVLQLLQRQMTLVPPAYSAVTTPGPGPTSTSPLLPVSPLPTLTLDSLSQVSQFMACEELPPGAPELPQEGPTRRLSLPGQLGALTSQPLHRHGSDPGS

Legend:
[1] = target: Human BOAT1 (Homo sapiens, UniProt Q695T7); assay: hBOAT1 inhibitory test (phenylalanine uptake); conditions: read-out: hB0AT1 IC50, Human BOAT1 stable expression CHO cells, phenylalanine 0.25 mM
[2] = target: hERG channel (Homo sapiens, UniProt Q12809)
[3] = [3H]-L-phenylalanine uptake, radioactivity after 100 to 200 min

Compound | IC50 [1, 3] [µM] | IC50 [2] [µM] | IC50 ([1]; phenylalanine uptake) [µM]
O=C(O)Cc1cc(F)c2c(c1)CCN(C(=O)CNC(=O)/C=C/c1ccc(S(F)(F)(F)(F)F)cc1)C2 | 0.07 | > 30 | 
CC(C)(C)OC(=O)CCc1cc2n(n1)CCN(C(=O)CNC(=O)/C=C/c1ccc(C(F)(F)F)cc1)C2 | 0.134 |  | 
O=C(O)CNc1ccc2c(c1)CCN(C(=O)CNC(=O)/C=C/c1ccc(C(F)(F)F)cc1)C2 | 0.071 |  | 
C[C@@H]1CN(C(=O)CNC(=O)/C=C/c2ccc(C(F)(F)F)cc2F)[C@@H](c2ccc(Cl)cc2)CN1CCC(=O)O |  | > 30 | 0.033
O=C(O)Cc1cc(F)c2c(c1)CCN(C(=O)CNC(=O)/C=C/c1ccc(S(F)(F)(F)(F)F)cc1F)C2 | 0.059 | > 30 | 
